Our source for the binding signal values is paper PMC7723054.

This is one part of the list.

The chains are these.
T1: LIN28A (human?, UniProt Q9H9Z2 1-209)
T1 sequence: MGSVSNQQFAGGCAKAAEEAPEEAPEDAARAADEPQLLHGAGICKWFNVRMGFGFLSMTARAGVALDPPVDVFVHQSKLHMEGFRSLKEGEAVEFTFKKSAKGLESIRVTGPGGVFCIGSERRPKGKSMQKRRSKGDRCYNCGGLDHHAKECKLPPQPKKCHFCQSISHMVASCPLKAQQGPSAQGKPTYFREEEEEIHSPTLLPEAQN

T2: CIRBP (Homo sapiens, UniProt Q14011 1-172)
T2 sequence: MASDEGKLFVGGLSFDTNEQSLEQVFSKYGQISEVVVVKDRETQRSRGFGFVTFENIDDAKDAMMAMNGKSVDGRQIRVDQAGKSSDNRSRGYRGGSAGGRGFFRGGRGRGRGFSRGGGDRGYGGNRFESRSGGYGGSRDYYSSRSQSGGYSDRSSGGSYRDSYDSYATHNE

T3: DHX36 (Homo sapiens, UniProt Q9H2U1 1-1008)
T3 sequence: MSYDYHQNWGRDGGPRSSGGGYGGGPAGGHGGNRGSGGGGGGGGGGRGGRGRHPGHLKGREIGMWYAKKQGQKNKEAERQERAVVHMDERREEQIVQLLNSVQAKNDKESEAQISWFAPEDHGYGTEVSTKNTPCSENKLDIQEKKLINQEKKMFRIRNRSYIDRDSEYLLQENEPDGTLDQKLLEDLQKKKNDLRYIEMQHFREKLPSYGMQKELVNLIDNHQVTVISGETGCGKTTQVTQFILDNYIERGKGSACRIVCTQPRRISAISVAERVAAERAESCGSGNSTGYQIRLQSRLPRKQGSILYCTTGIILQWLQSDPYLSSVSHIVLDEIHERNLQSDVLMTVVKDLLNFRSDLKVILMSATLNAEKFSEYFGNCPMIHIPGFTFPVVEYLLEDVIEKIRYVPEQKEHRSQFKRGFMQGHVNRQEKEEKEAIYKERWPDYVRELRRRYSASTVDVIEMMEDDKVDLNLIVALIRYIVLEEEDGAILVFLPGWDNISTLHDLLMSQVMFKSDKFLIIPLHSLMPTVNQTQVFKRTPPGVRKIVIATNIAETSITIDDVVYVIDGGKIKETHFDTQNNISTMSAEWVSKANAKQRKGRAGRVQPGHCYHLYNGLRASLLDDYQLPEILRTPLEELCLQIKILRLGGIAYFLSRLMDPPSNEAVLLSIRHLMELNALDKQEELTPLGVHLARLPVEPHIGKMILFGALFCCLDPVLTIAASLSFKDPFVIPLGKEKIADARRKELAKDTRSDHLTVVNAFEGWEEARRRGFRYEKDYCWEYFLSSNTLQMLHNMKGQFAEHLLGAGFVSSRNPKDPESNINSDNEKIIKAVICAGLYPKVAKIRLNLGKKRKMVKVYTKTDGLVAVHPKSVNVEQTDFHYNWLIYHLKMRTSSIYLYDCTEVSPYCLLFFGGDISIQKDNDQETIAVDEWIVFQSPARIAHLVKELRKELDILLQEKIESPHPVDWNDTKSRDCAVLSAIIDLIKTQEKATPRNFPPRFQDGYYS

B1: hsa-mir-484 (structured_RNA)
RNA: GGGAAGUAGGUCCCACUACACUACCCCAGGUGUACGAAGUUUCAGCCGAUAAACCCCUAAAUAGGGACUUUCCCGGCUGAAGCUUCGUGCAC
B2: hsa-mir-4508 (structured_RNA)
RNA: GGGAAGGGGAAAUGCCCGGUCUAGAAACGGUGUACGAAGUUUCAGCCGCGGAGCAGCGCUGGGUGCAGCGCCUGGCUGAAGCUUCGUGCAC
B3: hsa-mir-3714 (structured_RNA)
RNA: GGGAAUAGUUGGCGGCCUCCUAUAGCGUGGUGUACGAAGUUUCAGCCUGUGACGUGCUCCAUCACCGGGCAGGCUGAAGCUUCGUGCAC
B4: hsa-mir-3135a (structured_RNA)
RNA: GGGACAAACCAGAUGGCUUUAAAUGCACGGUGUACGAAGUUUCAGCAGUGGUGCAAUCUCAGUUCACUGCUGAAGCUUCGUGCAC
B5: hsa-mir-4664 (structured_RNA)
RNA: GGGACGGCUCGACACACCUACGUGUACAGGUGUACGAAGUUUCAGCCAAGUUAUCACUGAGCGACUUCGCUGAAGCUUCGUGCAC
B6: hsa-mir-337 (structured_RNA)
RNA: GGGAACCGCUACUGGGUCUACCUGGAACGGUGUACGAAGUUUCAGCGGAGUUGAUGCACAGUUAUCCAGCUCCGCUGAAGCUUCGUGCAC
B7: hsa-mir-4687 (structured_RNA)
RNA: GGGAAUAGCUCAAGGGUAAUUUGUGCCCGGUGUACGAAGUUUCAGCCCCAAACUUGGAGCACUUGACCUUUGGCGCUGAAGCUUCGUGCAC
B8: hsa-mir-4724 (structured_RNA)
RNA: GGGAAGGAUAAUUCCGAGCAUUAGUUGAGGUGUACGAAGUUUCAGCGAGCUUCGUGUACAUUAUCUAUUAGAAAAUGAAGUACGCUGAAGCUUCGUGCAC
B9: NEAT1_ParasoR_ID49 (structured_RNA)
RNA: GGGAAAUGGUUCUUGGCUAUGGAACCCAGGUGUACGAAGUUUCAGCCCAUGGCUAAUGUUAUUAUAUUAUGUGCUAUUGUAAUGGAUGGGGCUGUGGGCUGAAGCUUCGUGCAC
B10: hsa-mir-148b (structured_RNA)
RNA: GGGAAAUAUCGCAGACUUUCCGGCACUCGGUGUACGAAGUUUCAGCCAGGCUGUGGCUCUCUGAAAGUCGCUGAAGCUUCGUGCAC
B11: hsa-mir-7850 (structured_RNA)
RNA: GGGACUGAGGUAAUUCCAGGACUAACACGGUGUACGAAGUUUCAGCCUGGGUCCUCUGUGCAGGGUCUUACCCAGGCUGAAGCUUCGUGCAC
B12: hsa-mir-6868 (structured_RNA)
RNA: GGGACACCAAAGACUUAGGACCUCUCACGGUGUACGAAGUUUCAGCGCAGCAGGCACCUGCUUCCGCUGAAGCUUCGUGCAC
B13: hsa-mir-6501 (structured_RNA)
RNA: GGGAGCGCUAUGAGCCACAUCUAGCCAUGGUGUACGAAGUUUCAGCUUGGUGACAGCAGCAGUAGAGUUGCCAGGCUGAAGCUUCGUGCAC
B14: hsa-mir-4519 (structured_RNA)
RNA: GGGAAAGAAUAGUUGCCCAGCAUCGACUGGUGUACGAAGUUUCAGCGCUGCACUGUCUCCGUCUGCGGGCUGAAGCUUCGUGCAC
B15: hsa-mir-6829 (structured_RNA)
RNA: GGGAAUUAGAAACUGGUAACCACUGUGUGGUGUACGAAGUUUCAGCGGCAGGGUCCUCCAGCUCAUUCCUCCUGCCGCUGAAGCUUCGUGCAC
B16: hsa-mir-527 (structured_RNA)
RNA: GGGAAAUCCGCACGGAGCUACACGAUGCGGUGUACGAAGUUUCAGCUUUCUGUUGUCUAAAAGAAAAGAAAGCUGAAGCUUCGUGCAC
B17: hsa-mir-1226 (structured_RNA)
RNA: GGGCAAAAGCAAGAACCGUAAGAGUUAAGGUGUACGAAGUUUCAGCAUGGGGCAGCUGGGAUGGUCCAAAAGGGUGGCCUCAGCUGAAGCUUCGUGCAC
B18: r(CGG)16: (structured_RNA)
RNA: GGGACGGCCUGAUGAUCACACGAUUCACGGUGUACGAAGUUUCAGCCGGCGGCGGCGGCGGCGGCGGCGGCGGCGGCGGCGGCGGCGGCGGCGGGCUGAAGCUUCGUGCAC
B19: PARIS_ID28 (structured_RNA)
RNA: GGGAAGAGUUCCCCAAACGGCAAAAUGAGGUGUACGAAGUUUCAGCAGUCCAUGGCUAAUGUUAUUAUAUUAUGUGCUAUUGUAAUGGAUGGGGCUGUGGAGUGCUGAAGCUUCGUGCAC
B20: hsa-mir-371b (structured_RNA)
RNA: GGGACAAAGUAGCCCCACUUAUGCCGAAGGUGUACGAAGUUUCAGCACUUUCACCAGAGAGCAGAAAGUGCUGAAGCUUCGUGCAC
B21: hsa-mir-4486 (structured_RNA)
RNA: GGGAAUAUGGUCGGGUGGCGGGAAAAUGGGUGUACGAAGUUUCAGCGGCAUCUAGCACAGGCGGUAGAUGCUGCUGAAGCUUCGUGCAC
B22: hsa-mir-1197 (structured_RNA)
RNA: GGGAACAAGACGGUCAGCUAUCAAUGCGGGUGUACGAAGUUUCAGCUGUACGCUUUAUUUGUGACGUAGGGCUGAAGCUUCGUGCAC

The target of one assay is U1A (Homo sapiens, UniProt P09012). The experiment in a line: FOREST: bead pull-down of RNA structure library v1, barcode microarray; U1A/LIN28A: 20 mM HEPES pH 7.5, 80 mM KCl, 20 mM NaCl, 10% glycerol, 2 mM DTT, 0.1 ug/uL BSA, 4 C; BG4/CIRBP/DHX36: 10 mM Tris-HCl pH 7.5, 100 mM KCl (or LiCl),; high values mean tight binding.
Molecule B1 yielded a binding signal of 0.582 z-score.
Same read-out and setting: for B2 the value was 0.617 z-score; for B3, 0.572 z-score.
On the same count and under the same terms, to B4 belongs 0.573 z-score.
For the molecule B5, the binding signal was 0.586 z-score.
Same read-out and setting: to B6 belongs 0.577 z-score.
Molecule B7 returned a binding signal of 0.588 z-score.
Molecule B8 showed a binding signal of 0.577 z-score.
The same measure, in the same setting: for B9 the value was 0.586 z-score; for B10, 0.588 z-score; for B11, 0.618 z-score.
As to B12, the binding signal stood at 0.602 z-score.
Same read-out and setting: for B13 the value was 0.608 z-score; for B14, 0.592 z-score.
As for B15, the binding signal is 0.573 z-score.
As for B16, the binding signal worked out at 0.575 z-score.
On the same count and under the same terms, for B17 the value was 0.609 z-score; for B18, 0.605 z-score.
Consider B19, for which the binding signal is 0.574 z-score.
Molecule B20 displayed a binding signal of 0.614 z-score.
With B21, the binding signal came to 0.575 z-score.
Still for that read-out and setting: to B22 belongs 0.604 z-score.

The target in a further assay is T1, LIN28A. Described as above.
As for B1, the binding signal is -0.201 z-score.
In turn, B2 showed a binding signal of -1.41 z-score.
B3 yielded a binding signal of -1.11 z-score.
Regarding B4, the binding signal is -0.474 z-score.
For the molecule B5, the binding signal was -0.0503 z-score.
On the same count and under the same terms, to B6 belongs -0.2 z-score.
For B7, the binding signal is -0.515 z-score.
The same measure, in the same setting: to B8 belongs 0.795 z-score.
B9 showed a binding signal of 1.06 z-score.
On the same count and under the same terms, for B10 the value was 0.966 z-score; for B11, -1.26 z-score.
For the molecule B12, the binding signal is 0.0774 z-score.
Take B13: the binding signal was found to be 0.926 z-score.
In the case of B14, the binding signal turned out to be 0.581 z-score.
B15 displayed a binding signal of -0.477 z-score.
Consider B16, for which the binding signal is -0.0587 z-score.
On the same count and under the same terms, to B17 belongs 1.37 z-score; to B18, 0.104 z-score; to B19, 0.98 z-score.
On the same count and under the same terms, to B20 belongs -0.861 z-score; to B21, 0.494 z-score.
Molecule B22 yielded a binding signal of 1.38 z-score.

Another assay concerns the target T2, CIRBP. Described as above.
As for B1, the binding signal was -0.314 z-score.
As to B2, the binding signal was -1.33 z-score.
On the same count and under the same terms, to B3 belongs -0.633 z-score; to B4, 1.14 z-score.
On the same count and under the same terms, for B5 the value was -0.378 z-score; for B6, 0.354 z-score.
Still for that read-out and setting: for B7 the value was -1.37 z-score.
In turn, B8 returned a binding signal of 0.947 z-score.
On to B9, for which the binding signal is 0.625 z-score.
For B10, the binding signal was 0.231 z-score.
Still for that read-out and setting: to B11 belongs -1.84 z-score; to B12, 0.717 z-score; to B13, -0.291 z-score.
B14: the binding signal is -0.125 z-score.
On the same count and under the same terms, to B15 belongs -0.0281 z-score; to B16, -1.07 z-score.
On the same count and under the same terms, for B17 the value was -0.967 z-score; for B18, -1.58 z-score.
The same measure, in the same setting: to B19 belongs 0.0645 z-score; to B20, -0.473 z-score.
On to B21, for which the binding signal amounted to 1.37 z-score.
In the case of B22, the binding signal was found to be 0.0713 z-score.

For the next assay, the target named is T3, DHX36. The assay is described as above.
As to B1, the binding signal came to 0.0861 z-score.
Molecule B2 yielded a binding signal of -0.665 z-score.
In the case of B3, the binding signal is -0.658 z-score.
Same read-out and setting: to B4 belongs 0.69 z-score; to B5, -1.05 z-score; to B6, -0.55 z-score.
For B7, the binding signal is -1.4 z-score.
The same measure, in the same setting: to B8 belongs 0.96 z-score.
Molecule B9 came in with a binding signal of 0.344 z-score.
Consider B10, for which the binding signal is 0.0429 z-score.
In turn, B11 had a binding signal of -2.04 z-score.
The same measure, in the same setting: to B12 belongs 0.219 z-score; to B13, -0.0763 z-score; to B14, 0.904 z-score.
Regarding B15, the binding signal was -0.398 z-score.
In turn, B16 came in with a binding signal of -0.318 z-score.
On the same count and under the same terms, for B17 the value was 1.19 z-score; for B18, 2.2 z-score; for B19, -0.386 z-score.
For B20, the binding signal is -0.308 z-score.
For B21, the binding signal was found to be 0.981 z-score.
Take B22: the binding signal stood at 1.01 z-score.
